The test system of this experiment is phosphorylation of Serine 473 in Akt. As to the kind of experiment: In Vitro Phospho-Ser473 Akt Assay in MDA-MB-468 cells. Type of experiment: cell-based. The following applies: Homo sapiens, MDA-MB-468, read-out: IC50 values against mTOR, phospho-Ser473 Akt assay, MDA-MB-468 cells.

The structures appear in SMILES notation.

Broadly, the IC50 is the concentration that inhibits the measured activity by half. In the case of `C[C@H]1COCCN1c1nc(N2CCOC[C@@H]2C)c2ccc(-c3ccc(CNCCO)cc3)nc2n1` [Example 4f], the half-inhibitory concentration (IC50) is under 100 nM.

For the origin of these results see patent US9102670B2, “Pyrido-, pyrazo- and pyrimido-pyrimidine derivatives as mTOR inhibitors” (KuDOS Pharmaceuticals Limited, priority 2006, dated 2015).
